Consider three molecules from US20250171420A1 (Monte Rosa Therapeutics, Inc., priority 2022, published 2025).

Amino acid sequences for entries named in this document (tags omitted). Residues count along the entry.
UniProt P48729, whole entry: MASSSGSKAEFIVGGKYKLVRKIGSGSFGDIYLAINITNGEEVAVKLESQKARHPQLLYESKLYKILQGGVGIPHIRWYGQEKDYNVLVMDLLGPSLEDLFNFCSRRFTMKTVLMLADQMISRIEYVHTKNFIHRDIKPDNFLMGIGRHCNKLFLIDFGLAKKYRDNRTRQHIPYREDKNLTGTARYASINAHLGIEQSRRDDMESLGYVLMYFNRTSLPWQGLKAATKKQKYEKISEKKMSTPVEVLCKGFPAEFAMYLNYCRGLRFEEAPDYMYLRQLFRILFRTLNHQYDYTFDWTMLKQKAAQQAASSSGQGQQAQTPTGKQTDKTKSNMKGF
UniProt Q96SW2, whole entry: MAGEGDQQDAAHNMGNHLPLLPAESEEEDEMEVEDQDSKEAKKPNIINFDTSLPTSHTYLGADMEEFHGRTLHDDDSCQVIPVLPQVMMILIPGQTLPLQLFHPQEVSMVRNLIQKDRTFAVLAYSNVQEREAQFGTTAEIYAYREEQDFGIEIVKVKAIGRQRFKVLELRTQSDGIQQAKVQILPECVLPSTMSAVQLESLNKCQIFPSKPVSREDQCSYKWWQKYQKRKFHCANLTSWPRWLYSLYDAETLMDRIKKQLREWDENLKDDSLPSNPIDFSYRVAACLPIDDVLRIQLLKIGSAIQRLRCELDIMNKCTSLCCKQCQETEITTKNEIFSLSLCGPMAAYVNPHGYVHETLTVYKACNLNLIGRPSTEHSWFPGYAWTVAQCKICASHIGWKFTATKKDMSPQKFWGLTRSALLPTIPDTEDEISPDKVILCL
UniProt Q16531, 2-1140 partner limits assumed: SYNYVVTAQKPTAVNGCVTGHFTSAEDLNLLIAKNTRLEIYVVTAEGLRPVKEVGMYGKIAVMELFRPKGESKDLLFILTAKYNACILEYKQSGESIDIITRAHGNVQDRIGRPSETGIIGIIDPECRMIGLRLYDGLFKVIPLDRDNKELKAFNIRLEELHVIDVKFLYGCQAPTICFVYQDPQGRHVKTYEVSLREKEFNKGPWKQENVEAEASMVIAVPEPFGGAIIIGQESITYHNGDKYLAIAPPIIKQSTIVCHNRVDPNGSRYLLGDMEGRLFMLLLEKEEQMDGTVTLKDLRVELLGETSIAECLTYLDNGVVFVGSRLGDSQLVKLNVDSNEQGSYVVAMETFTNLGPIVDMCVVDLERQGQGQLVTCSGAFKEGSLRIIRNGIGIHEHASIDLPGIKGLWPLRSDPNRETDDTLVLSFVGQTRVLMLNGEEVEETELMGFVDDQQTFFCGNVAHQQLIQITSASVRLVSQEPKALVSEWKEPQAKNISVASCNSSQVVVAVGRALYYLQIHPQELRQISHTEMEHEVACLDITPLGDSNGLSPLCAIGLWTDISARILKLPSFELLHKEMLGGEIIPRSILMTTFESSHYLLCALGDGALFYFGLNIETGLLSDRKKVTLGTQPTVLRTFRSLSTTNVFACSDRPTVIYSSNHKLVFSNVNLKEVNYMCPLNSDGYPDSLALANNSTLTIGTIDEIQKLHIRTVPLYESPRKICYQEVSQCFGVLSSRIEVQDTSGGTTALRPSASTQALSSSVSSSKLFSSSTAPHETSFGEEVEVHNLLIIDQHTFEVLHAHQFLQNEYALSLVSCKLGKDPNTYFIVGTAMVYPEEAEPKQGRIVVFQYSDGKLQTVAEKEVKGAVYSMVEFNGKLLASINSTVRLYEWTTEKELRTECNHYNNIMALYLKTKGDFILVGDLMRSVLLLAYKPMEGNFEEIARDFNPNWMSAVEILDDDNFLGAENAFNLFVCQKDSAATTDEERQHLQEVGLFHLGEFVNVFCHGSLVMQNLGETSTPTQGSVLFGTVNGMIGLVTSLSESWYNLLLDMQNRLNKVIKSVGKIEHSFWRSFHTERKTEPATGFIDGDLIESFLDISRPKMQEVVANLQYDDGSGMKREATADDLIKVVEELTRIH
UniProt Q16531, whole entry partner: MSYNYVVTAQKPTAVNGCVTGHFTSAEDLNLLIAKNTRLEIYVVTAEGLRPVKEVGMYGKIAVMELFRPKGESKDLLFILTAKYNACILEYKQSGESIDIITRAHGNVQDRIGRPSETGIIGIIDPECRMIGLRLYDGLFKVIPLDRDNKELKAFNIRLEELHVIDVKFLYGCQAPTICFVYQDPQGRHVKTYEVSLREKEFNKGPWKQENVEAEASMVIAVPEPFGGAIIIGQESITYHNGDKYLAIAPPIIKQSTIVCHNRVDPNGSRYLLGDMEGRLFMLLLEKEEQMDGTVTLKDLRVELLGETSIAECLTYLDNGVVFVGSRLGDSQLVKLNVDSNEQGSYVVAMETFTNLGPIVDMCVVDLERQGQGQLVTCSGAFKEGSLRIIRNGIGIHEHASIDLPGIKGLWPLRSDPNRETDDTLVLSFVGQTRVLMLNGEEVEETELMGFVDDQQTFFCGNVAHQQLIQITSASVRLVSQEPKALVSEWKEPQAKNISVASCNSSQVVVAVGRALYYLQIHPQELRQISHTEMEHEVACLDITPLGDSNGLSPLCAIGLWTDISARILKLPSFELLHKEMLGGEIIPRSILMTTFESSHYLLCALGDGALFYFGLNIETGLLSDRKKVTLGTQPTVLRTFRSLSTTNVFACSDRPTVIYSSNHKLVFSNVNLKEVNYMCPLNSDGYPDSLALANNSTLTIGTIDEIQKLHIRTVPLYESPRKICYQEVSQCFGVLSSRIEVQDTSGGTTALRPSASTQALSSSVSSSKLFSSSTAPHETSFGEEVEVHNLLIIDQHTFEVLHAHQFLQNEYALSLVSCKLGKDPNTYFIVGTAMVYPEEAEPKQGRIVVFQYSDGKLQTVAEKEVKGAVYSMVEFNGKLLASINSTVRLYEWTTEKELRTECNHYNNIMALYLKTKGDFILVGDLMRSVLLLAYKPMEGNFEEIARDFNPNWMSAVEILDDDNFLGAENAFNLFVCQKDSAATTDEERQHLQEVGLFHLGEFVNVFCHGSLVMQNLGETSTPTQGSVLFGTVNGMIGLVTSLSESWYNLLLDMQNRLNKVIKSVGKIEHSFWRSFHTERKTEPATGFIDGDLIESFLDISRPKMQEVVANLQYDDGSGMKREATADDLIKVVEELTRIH

The target in test [1] is CK1α (Homo sapiens, UniProt P48729+Q96SW2). Briefly: CK1α NanoBit Assay (HiBiT-tagged CSNK1A1, HEK293 clonal lines). Conditions: read-out: CK1α DC50 (μM) 24 h; HEK293 HiBiT-CSNK1A1/LgBiT cells, 24 h incubation.
Test [2] deals with CRBN/DDB1 (Homo sapiens, UniProt Q96SW2). Briefly: HTRF binding assay (displacement of Cy5-thalidomide probe from CRBN/DDB1). The following applies: read-out: HTRF_Thali_Disp_DR_geo_IC50; CRBN/DDB1 2.5 nM, Cy5-Thalidomide 100 nM, 30 min; geometric mean. The source says: Binding of test compounds to CRBN/DDB1 was monitored in an HTRF assay using 1-[5-({2-[2-(2-{[2-(2,6-dioxopiperidin-3-yl)-1,3-dioxo-2,3-dihydro-1H-isoindol-4-yl]oxy}acetamido)ethoxy]ethyl}carbamoyl)pentyl]-3,3-dimethyl-2-[(1E,3E)-5-[(2E)-1,3,3-trimethyl-5-sulfo-2,3-dihydro-1H-indol-2-ylidene]penta-1,3-dien-1-yl]-3H-indol-1-ium-5-sulfonate as a fluorescent probe. In this assay, compounds displace the fluorescently labeled thalidomide-based probe bound to CRBN and fluorescence is monitored with increasing compound concentration. Assays were conducted in Greiner white 384 well HiBase plates (Cat. No 784075-25) in 10 μL total volume. A one pot detection solution of CRBN/DDB1 (2.5 nM), anti-His Terbium Cryptate Gold (1×, PerkinElmer Cat. #: 61HI2TLB), and Cy5-Thalidomide (100 nM, Tenova Cat.: T52461) was prepared in 20 mM HEPES, 20 mM NaCl, 0.2 mM TCEP, 0.2 mM EDTA, and 0.005% Tween20 was dispensed to each assay plate. Test compounds were stored in dry, ambient temperatures at 10 mM. A 10-point, 1:3 dilution series was prepared from 10 mM stock concentrations in Echo-compatible LDV plates. 10 nL of each compound dilution series was dispensed into assays wells using an Echo 650 (Labcyte inc. USA). 10 nL of 10 mM lenalidomide (Selleckchem Cat no. S1029) was transferred into the active-control wells for the assay and 10 nL of DMSO was transferred into the negative control wells. […]
For orientation: TR-FRET usually uses a lanthanide donor and a delayed reading to cut background.

For `O=C1CCC(N2Cc3cc(NC(=O)N4C5CCC4c4ccccc45)ccc3C2=O)C(=O)N1` (stereo not shown), the DC50 in test [1] is > 1 µM.

On to `CCOC[C@@H]1Cc2c(F)cccc2N1C(=O)Nc1ccc2c(c1)CN(C1CCC(=O)NC1=O)C2=O` (stereo partly shown), for which the DC50 in test [1] was < 0.1 µM. In addition, the IC50 in test [2] was > 1 µM.

Take `O=C1CCC(N2Cc3cc(NC(=O)N4C5C=CC4c4ccccc45)ccc3C2=O)C(=O)N1` (stereo not shown): in test [1], the DC50 is > 1 µM.
